# System: Male CD-1 mice
# Assay: I-Aβ brain efflux after icv injection
# Type: in vivo, mouse
# Details: indomethacin 20 mg/kg ip 30 min before LPS 3 mg/kg; n = 6-10 mice/group
compound,measurement,value
COc1ccc2c(c1)c(CC(=O)O)c(C)n2C(=O)c1ccc(Cl)cc1 [Indomethacin],LPS effect on efflux of I-Aβ,blocked

# Source: paper PMC2783557 (Brain, behavior, and immunity, 2009)
